Results published in patent publication US20170339949A1, “SUGAR SURFACTANTS AND USE THEREOF IN AGROCHEMICAL COMPOSITIONS” (Clariant International Ltd., priority 2014, published 2017).

Tested on: poinsettia plants of the Princettia variety
Test: Plant compatibility after application to poinsettia plants
Conditions: 1 g/L, within one day

Substance: ethoxylated lauryl alcohol
- Plant compatibility: necroses: distinct necroses
